Here are results for three substances from article PMC6107554.

Like-named read-outs stand apart in the source and are kept apart here.

Assay [1] deals with HA-HDAC5 (UniProt Q9UQL6).
Assay [2] addresses HA-HDAC5 (UniProt Q9UQL6). Description: co-IP; HEK 293T co-transfected with Gal4-RDs and HA-HDAC5; lysis in RIPA buffer; lysate incubated with anti-HA or anti-GAL4 antibody overnight at 4 °C, protein A/G beads, five washes in PBS; western blot for the Gal4 or HA tag; band density by Quantity One, three independent experiments. For orientation: Immunoblotting shows a protein as a band on a membrane.

For assay [3], the target named is HA-HDAC5 (UniProt Q9UQL6). The source holds these as a separate data set.
The target in assay [4] is HA-HDAC5 (UniProt Q9UQL6). The source holds these as a separate data set.

On to “Gal4 DNA-binding domain fused to the wild-type repression domain (RD) of Tbx3 (domain or fragment)”, for which the luciferase reporter (Gal4 sites, HEK 293T): transcriptional repression by Gal4-RD in the assay with HA-HDAC5 [1] came out at 25 fold.

In turn, “Gal4-RD of Tbx3 with 585LFSYPYT591 substituted by glycine (MT4) (domain or fragment)” had a reduction of binding activity against the wild-type RD with HA-HDAC5 [2] of 80%. In the assay with HA-HDAC5 [3], this substance registered a luciferase reporter: loss of repression activity against the wild-type RD of 40%.

In the assay with HA-HDAC5 [4], “Gal4-RD of Tbx3 with 604HRH606 replaced by aspartic acid (MT10) (domain or fragment)” registered a luciferase reporter: loss of repression activity against the wild-type RD of 27%. The reduction of binding activity against the wild-type RD with HA-HDAC5 [2] worked out at 30%.
